Bioassay records as filed in PubChem BioAssay.
A selection: hits, their analogues and other compounds. The true share with any hit is near 16%.
uPA generation: cell surface uPA generation inhibition; cell surface uPA generation assay, qHTS; Potency, µM (series often up to 38.3 µM), most hits filed as inhibitors; 330,000 tested, 0.31% active; active = well fitted inhibition curve with a large enough effect; inconclusive = small, poorly fitted or top-dose-only effect; inactive = no such curve, though single readings can be large or run the other way; tested in mouse RAW 264.7 cells; note: nearly all actives have a fitted effect of over 55% in size
miR-21 reporter: raises the signal of a miR-21 reporter | HeLa miR-21 FLuc reporter, luciferase, 48 h | Potency, µM (doses to about 38.3 µM) | 340,000 tested, under 10 active | AID 2288; active = well fitted rising curve with a large enough effect; inconclusive = small, poorly fitted or top-dose-only effect; inactive = no such curve, though single readings can be large or run the other way;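 also: miR-21 action dims this reporter so a rising signal means less miR-21 action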
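Using DMEM plus 10% FBS, HeLa miR-21-FLuc cells are incubated with test compounds (final up to about 40uM) for 48 hours; firefly luciferase signal is then imaged following reagent-mediated lysis.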
DT40 TDP1 CPT: DT40-hTDP1 cell growth loss with CPT | Potency, µM (series often up to 46.2 µM), hits mostly inhibitors | 420,000 tested, 12% active | chicken DT40 Tdp1-/-;hTDP1 cells + 20 nM CPT, ATP luminescence, 48 h | AID 686979; note: nearly all actives have a fitted effect of over 55% in size
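Chicken DT40 Tdp1-/- cells complemented with human TDP1, 400 cells/well, exposed to compounds plus 20 nM camptothecin for at least 48 h at 37 C; viability read as ATP content by CellTiter-Glo luminescence.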
TDP1 block: TDP1 (human) enzyme inhibition; Q9NUW8; 350,000 tested, 0.28% active; recombinant TDP1, AlphaScreen DNA substrate cleavage; Potency, µM (series often up to 130 µM), most hits filed as inhibitors; note: nearly all actives have a fitted effect of over 40% in size
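E. coli-derived human Tdp1, 1 nM final. Cpd preinc 15 min RT; substrate 15 nM final, 5 min RT; AS bead mix 10 ug/ml final, 10 min RT. Signal loss = tyrosine-FITC cleavage. No-enzyme wells = max signal.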
DT40 TDP1 no CPT: qHTS for Inhibitors of human tyrosyl-DNA phosphodiesterase 1 (TDP1): qHTS in cells in absence of CPT. DT40 Tdp1-/- hTDP1 cells, no CPT, ATP luminescence, 48 h. Potency, µM (series often up to 46.2 µM), usual class: inhibitors. 420,000 tested, 15% active. AID 686978, 2013; note: nearly all actives have a fitted effect of over 55% in size
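Luminescent ATP content (CellTiter-Glo) served as the growth readout. Knockout chicken DT40 cells expressing human TDP1 were exposed to compounds without camptothecin for a minimum 48 hr at 37 °C.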
Numbers stand for hits; ! = repeats disagree; [ ] = another dose, or the depositor's remark. Unless noted, calls come from the whole dose curve; as a rule, active = well fitted curve in the direction sought with a large enough effect; inconclusive = small, poorly fitted or top-dose-only effect, or another doubt; inactive = no such curve, though single readings can be large; an effect the other way counts as inactive or inconclusive.

`CC(C)(C)n1ncc(Oc2ccccc2[N+](=O)[O-])c(Cl)c1=O` gave uPA generation inactive, miR-21 reporter inactive, DT40 TDP1 CPT inconclusive, TDP1 block inactive and DT40 TDP1 no CPT 23.1µM.
`Cc1ccc(S(=O)(=O)NC23CC4CC(CC(C4)C2)C3)cc1` gave uPA generation inactive, DT40 TDP1 CPT inconclusive, TDP1 block inactive and DT40 TDP1 no CPT 20.6µM.
`Cc1nn(C)c(C(=O)Nc2ccc(Br)cc2F)c1Br` gave uPA generation inactive, miR-21 reporter inactive, DT40 TDP1 CPT inactive, TDP1 block inactive and DT40 TDP1 no CPT inactive.
Cc1nn(C)c(C(=O)Nc2ccc(S(=O)(=O)NC34CC5CC(CC(C5)C3)C4)cc2)c1Br was read as uPA generation inactive, miR-21 reporter inactive, DT40 TDP1 CPT 20.6µM, TDP1 block inactive and DT40 TDP1 no CPT 23.1µM.
O=C1NC(=S)S/C1=C\c1cc(Cl)ccc1Cl was read as uPA generation inactive, DT40 TDP1 CPT 20.6µM and DT40 TDP1 no CPT inconclusive.
`Cc1ccc(C(=O)OC(C)C(=O)c2cc(C)c(C)cc2C)o1` (stereo not drawn) gave uPA generation inactive, miR-21 reporter inactive, DT40 TDP1 CPT inconclusive, TDP1 block 56.2µM and DT40 TDP1 no CPT inactive.
Screening C=CCNc1nnc(Cc2ccc(C(C)C)cc2)c(=O)[nH]1 returned uPA generation inconclusive, miR-21 reporter inactive, DT40 TDP1 CPT 7.31µM, TDP1 block 50.1µM and DT40 TDP1 no CPT 3.26µM.
For Oc1ccccc1/C=N/Nc1cc(N2CCCC2)nc(N2CCCC2)n1 the results were uPA generation inactive, miR-21 reporter inactive, DT40 TDP1 CPT 11.6µM, TDP1 block inactive and DT40 TDP1 no CPT 11.6µM.
`Oc1ccc(/C=N/Nc2cc(N3CCOCC3)nc(N3CCOCC3)n2)cc1O` gave uPA generation inactive, miR-21 reporter inactive, DT40 TDP1 CPT inconclusive, TDP1 block inactive and DT40 TDP1 no CPT 20.6µM.
For Oc1cccc(/C=N/Nc2cc(N3CCOCC3)nc(N3CCOCC3)n2)c1 the results were uPA generation inactive, miR-21 reporter inactive, DT40 TDP1 CPT 16.4µM, TDP1 block inactive and DT40 TDP1 no CPT 14.6µM.
Screening Cc1nc(N/N=C/c2cccc(F)c2)cc(N2CCOCC2)n1 returned uPA generation inactive, miR-21 reporter inactive, DT40 TDP1 CPT inconclusive and DT40 TDP1 no CPT inconclusive.
Screening COc1ccc(OCCn2cnc(Cl)c2Cl)cc1 returned uPA generation inactive, miR-21 reporter inactive, DT40 TDP1 CPT inactive, TDP1 block inactive and DT40 TDP1 no CPT inactive.
Screening CC(=NNS(=O)(=O)c1ccc(C)cc1)c1ccccc1 returned DT40 TDP1 CPT inactive and DT40 TDP1 no CPT inactive.
For Fc1ccc(Nc2nc3nonc3nc2Nc2cccc(C(F)(F)F)c2)cc1 the results were miR-21 reporter inconclusive, DT40 TDP1 CPT 0.326µM, TDP1 block inactive and DT40 TDP1 no CPT 0.164µM.
`CCNc1nc(-c2sc(NC(=O)C(C)(C)C)nc2C)c(-n2cc(-c3ccccc3)nn2)s1` gave DT40 TDP1 CPT 10.3µM and DT40 TDP1 no CPT 7.31µM.
`CCn1c(=O)cc(SCC(=O)N2CCN(c3ccccc3F)CC2)c2ccccc21` gave uPA generation inactive, miR-21 reporter inactive, DT40 TDP1 CPT inconclusive, TDP1 block inactive and DT40 TDP1 no CPT 25.9µM!.
For CCn1c(=O)cc(SCC(=O)N2CCN(c3ccccn3)CC2)c2ccccc21 the results were uPA generation inactive, miR-21 reporter inactive, DT40 TDP1 CPT inactive, TDP1 block inactive and DT40 TDP1 no CPT inconclusive.
`Cc1ccc(Cl)cc1N1CCN(C(=O)CSc2cc(=O)n(C)c3ccccc23)CC1` gave miR-21 reporter inactive, DT40 TDP1 CPT 14.6µM, TDP1 block inactive and DT40 TDP1 no CPT 7.31µM.
Screening NC(=O)c1ccc(/C(N)=N/S(=O)(=O)c2cc(C(F)(F)F)cc(C(F)(F)F)c2)cc1 returned uPA generation inactive, miR-21 reporter inactive, DT40 TDP1 CPT inactive and DT40 TDP1 no CPT inconclusive.
Screening CCc1ccc(CN(Cc2ccco2)c2cnc(S(C)(=O)=O)nc2C(=O)Nc2c(C)cccc2C)cc1 returned miR-21 reporter inactive, DT40 TDP1 CPT 16.4µM, TDP1 block inactive and DT40 TDP1 no CPT 18.4µM.
For CC(C)c1ccc(CN(Cc2ccco2)c2cnc(S(C)(=O)=O)nc2C(=O)Nc2ccc(F)cc2)cc1 the results were miR-21 reporter inactive, DT40 TDP1 CPT inconclusive, TDP1 block inactive and DT40 TDP1 no CPT 20.6µM.
Screening Cc1ccc(NC(=O)c2nc(S(C)(=O)=O)ncc2N(Cc2ccco2)Cc2ccco2)cc1 returned miR-21 reporter inactive, DT40 TDP1 CPT 8.2µM, TDP1 block inactive and DT40 TDP1 no CPT 11.6µM.
For COc1ccc(NC(=O)c2cc3c(=O)n(C)c4ccccc4c3n2C)cc1OC the results were uPA generation inconclusive, miR-21 reporter inactive, DT40 TDP1 CPT inconclusive, TDP1 block inactive and DT40 TDP1 no CPT inconclusive.
`Cn1c(C(=O)Nc2cccc(Cl)c2)cc2c(=O)n(C)c3ccccc3c21` gave miR-21 reporter inactive, DT40 TDP1 CPT inactive, TDP1 block inactive and DT40 TDP1 no CPT 14.6µM.
CCOC(=O)c1cccc(NC(=O)c2cc3c(=O)n(C)c4ccccc4c3n2C)c1 was read as miR-21 reporter inactive, DT40 TDP1 CPT inconclusive, TDP1 block inactive and DT40 TDP1 no CPT 20.6µM.
Screening COC(=O)c1ccccc1NC(=O)c1cc2sccc2n1C returned miR-21 reporter inactive, DT40 TDP1 CPT inactive, TDP1 block inactive and DT40 TDP1 no CPT inactive.
Screening COC(=O)c1cccc(NC(=O)c2cc3sccc3n2C)c1 returned uPA generation inactive, miR-21 reporter inactive, DT40 TDP1 CPT inconclusive, TDP1 block inactive and DT40 TDP1 no CPT 20.6µM.
Screening C=CCOC(=O)/C=C/C(=O)NC(N)=O returned uPA generation inactive, miR-21 reporter inactive, DT40 TDP1 CPT 10.3µM and DT40 TDP1 no CPT 16.4µM.
Screening C=CCOC(=O)/C=C/NC(=O)/C=C/C=C/CCCCCCCC(C)O (stereo not drawn) returned TDP1 block inactive[21 µM].
`O=C(CS(=O)(=O)c1ccc(Cl)cc1)NCCS(=O)(=O)c1ccc(Cl)cc1` gave uPA generation inactive, miR-21 reporter inactive, DT40 TDP1 CPT inactive, TDP1 block inactive and DT40 TDP1 no CPT inactive.
`Cc1ccc(-n2c(CSc3nc(C)cc(C)n3)nnc2SCC(=O)N2CCCC2)cc1` gave uPA generation inactive, miR-21 reporter inactive, DT40 TDP1 CPT inactive, TDP1 block inactive and DT40 TDP1 no CPT inactive.
For COc1ccc(-n2c(Cc3cccn3C)nnc2SCC(=O)Nc2ccc(C)cc2)cc1 the results were uPA generation inactive, miR-21 reporter inactive, DT40 TDP1 CPT inactive, TDP1 block inactive and DT40 TDP1 no CPT inactive.
Screening CCn1c(CCNC(=O)c2cccs2)nnc1SCC(=O)Nc1cccc(Cl)c1 returned uPA generation inactive, DT40 TDP1 CPT inactive and DT40 TDP1 no CPT inactive.
